Test results as given in ChEMBL document CHEMBL1145819 (J Med Chem, 2003).

Chains of the proteins cited; added tags and fusions are not shown.
UniProt P32305, whole entry: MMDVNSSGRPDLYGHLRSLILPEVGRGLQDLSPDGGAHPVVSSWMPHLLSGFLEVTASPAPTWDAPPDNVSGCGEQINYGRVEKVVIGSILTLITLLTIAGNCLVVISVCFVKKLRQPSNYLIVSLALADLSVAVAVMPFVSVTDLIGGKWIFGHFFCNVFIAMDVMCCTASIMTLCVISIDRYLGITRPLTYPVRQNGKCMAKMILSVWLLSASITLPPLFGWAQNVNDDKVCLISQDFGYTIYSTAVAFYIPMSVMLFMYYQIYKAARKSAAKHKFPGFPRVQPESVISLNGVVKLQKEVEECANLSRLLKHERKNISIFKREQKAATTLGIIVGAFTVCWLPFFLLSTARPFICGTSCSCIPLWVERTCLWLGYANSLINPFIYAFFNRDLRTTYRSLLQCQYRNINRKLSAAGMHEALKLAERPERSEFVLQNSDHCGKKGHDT

Target: 5-hydroxytryptamine receptor 7 (Rattus norvegicus, UniProt P32305)
Test: Binding affinity towards rat 5-hydroxytryptamine 7 receptor

CCN(CC)C(=O)[C@@H]1C=C2c3cccc4[nH]cc(c34)C[C@H]2N(C)C1 [LYSERGIDE]
Ki: 2 nM
